# B1: 1456_P20 (PG20) (antibody, V domains shown)
# VH: QVRLVQSGPEVKKPGSSVTVSCQASGGTFSSYAFTWVRQAPGQGLEWLGMVTPIFGEAKYSQRFEGRVTITADESTSTTSIELRGLTSEDTAIYYCARDRRAVPIATDNWLDPWGQGTLVTVSS
# VL: DIQLTQSPSSLSASVGDRVSITCRASQTINNYLNWYQQTPGKAPKLLIYGASNLQNGVPSRFSGSGSGTDFTLTISSLQPEDFATYYCQQSFSTPRTFGQGTRLDIKR
# Molecular target: aMLV envelope on pseudotyped virus (negative control) (aMLV)
# Assay: cell-based or functional assay
binder,measurement,value
B1,"IC50, Neutralizing Antibody Assay, Virus/Ab Incubation 1 hour",> 50 µg/mL
same,"IC50, Neutralizing Antibody Assay, Virus/Ab Incubation 18 hour",> 50 µg/mL
